Legend:
[1] = molecular target: T1, m5-HT2C (C57Bl/6 mouse 5-HT2C-VNV receptor) (Mus musculus, UniProt P34968, I157V/I161V); assay: [3H]-mesulergine competition, HEK-293 membranes; assay type: binding
T1 sequence (P34968 33-459 I157V/I161V): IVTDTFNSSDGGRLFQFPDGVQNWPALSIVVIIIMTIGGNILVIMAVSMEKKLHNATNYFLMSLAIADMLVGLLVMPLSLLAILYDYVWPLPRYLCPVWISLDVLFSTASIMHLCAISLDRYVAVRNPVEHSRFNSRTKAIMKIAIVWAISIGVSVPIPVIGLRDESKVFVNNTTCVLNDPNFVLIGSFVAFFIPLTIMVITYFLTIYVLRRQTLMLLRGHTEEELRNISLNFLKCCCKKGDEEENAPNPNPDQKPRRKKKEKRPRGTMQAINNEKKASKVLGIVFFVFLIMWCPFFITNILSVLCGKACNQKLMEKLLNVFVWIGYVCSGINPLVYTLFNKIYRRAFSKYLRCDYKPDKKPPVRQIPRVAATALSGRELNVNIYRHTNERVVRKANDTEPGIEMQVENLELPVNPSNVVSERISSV

Sequences of proteins named here, by UniProt entry; tags and fusion partners are left off. Residues count along the entry.
UniProt P28335, 33-458: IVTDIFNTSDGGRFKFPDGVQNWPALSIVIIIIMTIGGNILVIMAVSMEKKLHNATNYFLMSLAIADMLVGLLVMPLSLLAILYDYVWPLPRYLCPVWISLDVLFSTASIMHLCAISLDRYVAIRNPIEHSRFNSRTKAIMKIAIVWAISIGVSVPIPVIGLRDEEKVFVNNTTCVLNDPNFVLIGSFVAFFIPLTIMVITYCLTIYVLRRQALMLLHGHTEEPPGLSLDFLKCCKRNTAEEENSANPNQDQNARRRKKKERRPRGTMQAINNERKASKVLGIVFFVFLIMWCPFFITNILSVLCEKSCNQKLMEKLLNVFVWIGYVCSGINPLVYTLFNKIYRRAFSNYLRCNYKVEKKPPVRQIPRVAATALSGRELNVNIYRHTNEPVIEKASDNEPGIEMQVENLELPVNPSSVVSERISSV

[2] = molecular target: h5-HT2C (human 5-HT2C-INI receptor) (Homo sapiens, UniProt P28335); assay: biochemical; assay type: binding

Cn1ccc2cc3c(cc21)CCN3C(=O)Nc1cccnc1 [SB-206553]
Ki [1]: 3.2 nM | Ki [2]: 3.1 nM
